For assay [1], the system named is COX-1/2. The assay is described as follows: Activity assay of COX-1/2 (mixture of equal amounts of COX-1 and COX-2, Cayman COX inhibitor screening kit). The note with it: compound at 100 µM, equal amounts of COX-1 and COX-2 in terms of enzyme activities.
Assay [2] deals with mouse mPGES-1 (Mus musculus, UniProt Q9JM51). As to the kind of experiment: Activity assay using recombinant mouse mPGES-1 (PGE2 enzyme immunoassay). The conditions noted are these: read-out: IC50 (nM) against mPGES-1, Mouse mPGES-1; Mean ± SD of measurements in triplicate.

The chains behind the UniProt entries cited, without tags or fusion partners.
UniProt Q9JM51, whole entry: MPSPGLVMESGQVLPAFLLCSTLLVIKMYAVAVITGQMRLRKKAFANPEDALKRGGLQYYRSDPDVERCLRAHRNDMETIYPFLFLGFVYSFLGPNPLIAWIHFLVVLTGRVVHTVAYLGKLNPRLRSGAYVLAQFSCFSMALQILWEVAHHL

Consider `CCOc1cc(C=C2C(=O)NC(=O)NC2=O)ccc1OCCCCC1CCCCC1`, for which the “COX-1/2 Inhibition (%) at 100 µM” value in assay [1] is listed as 0 ± 15.1%; in assay [1] (listed as 4 g), “did not significantly inhibit”.

As to `O=C1NC(=O)C(=Cc2ccc(OCCCCC3CCCCC3)c([N+](=O)[O-])c2)C(=O)N1`, the IC50 in assay [2] amounted to 698 nM.

Consider `Cc1cc(C=C2C(=O)NC(=O)NC2=O)ccc1OCCCCC1CCCCC1`, for which the IC50 in assay [2] was determined as 18900 nM.

For `O=C1NC(=O)C(=Cc2ccc(OCCCCC3CCCCC3)c(Br)c2)C(=O)N1`, the IC50 in assay [2] was found to be 917 nM.

The record behind these values is article PMC5979965, “Structure-based discovery of mPGES-1 inhibitors suitable for preclinical testing in wild-type mice as a new generation of anti-inflammatory drugs” (Scientific Reports, 2018).
